Conditions: in vivo

With Carrimycin the oral absolute bioavailability was 91.6%.
